Source: ChEMBL document CHEMBL1150977, “A quantitative analysis of kinase inhibitor selectivity” (Nat Biotechnol, 2008)

Sequences of proteins named here, by UniProt entry; tags and fusion partners are left off. A change or cut given only in a name is not applied to a line headed by its entry.
UniProt Q05655: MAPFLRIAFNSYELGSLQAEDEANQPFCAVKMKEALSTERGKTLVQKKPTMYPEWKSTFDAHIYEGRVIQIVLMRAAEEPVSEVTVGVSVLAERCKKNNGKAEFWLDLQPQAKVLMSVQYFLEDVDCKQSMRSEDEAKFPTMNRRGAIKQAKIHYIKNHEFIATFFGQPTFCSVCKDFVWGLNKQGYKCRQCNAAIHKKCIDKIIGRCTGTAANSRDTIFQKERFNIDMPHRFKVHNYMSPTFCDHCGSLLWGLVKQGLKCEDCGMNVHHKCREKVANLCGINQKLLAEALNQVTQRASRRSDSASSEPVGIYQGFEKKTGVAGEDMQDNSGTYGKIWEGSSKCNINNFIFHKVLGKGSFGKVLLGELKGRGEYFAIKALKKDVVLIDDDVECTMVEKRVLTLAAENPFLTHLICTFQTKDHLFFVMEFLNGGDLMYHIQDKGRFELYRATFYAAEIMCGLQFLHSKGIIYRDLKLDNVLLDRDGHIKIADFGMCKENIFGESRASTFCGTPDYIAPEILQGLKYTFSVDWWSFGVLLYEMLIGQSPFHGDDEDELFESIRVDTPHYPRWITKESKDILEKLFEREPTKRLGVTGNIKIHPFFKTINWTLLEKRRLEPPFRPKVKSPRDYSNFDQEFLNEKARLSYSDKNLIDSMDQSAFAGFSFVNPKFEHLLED
UniProt P48730: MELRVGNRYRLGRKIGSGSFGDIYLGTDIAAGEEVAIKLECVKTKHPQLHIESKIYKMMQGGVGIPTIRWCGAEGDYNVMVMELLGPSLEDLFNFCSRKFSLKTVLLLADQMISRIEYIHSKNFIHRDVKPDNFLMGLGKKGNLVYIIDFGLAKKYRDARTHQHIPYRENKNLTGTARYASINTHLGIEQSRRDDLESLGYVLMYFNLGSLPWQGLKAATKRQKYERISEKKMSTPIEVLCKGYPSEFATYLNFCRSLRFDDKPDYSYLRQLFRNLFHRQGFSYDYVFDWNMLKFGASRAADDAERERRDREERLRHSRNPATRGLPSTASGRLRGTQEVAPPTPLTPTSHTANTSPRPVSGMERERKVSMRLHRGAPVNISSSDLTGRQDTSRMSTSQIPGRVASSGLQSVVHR

Key:
[1] = biological target: Protein kinase C delta type (Homo sapiens, UniProt Q05655)
[2] = biological target: T1, Serine/threonine-protein kinase 17A (Homo sapiens, UniProt Q9UEE5)
T1 sequence (Q9UEE5 whole entry): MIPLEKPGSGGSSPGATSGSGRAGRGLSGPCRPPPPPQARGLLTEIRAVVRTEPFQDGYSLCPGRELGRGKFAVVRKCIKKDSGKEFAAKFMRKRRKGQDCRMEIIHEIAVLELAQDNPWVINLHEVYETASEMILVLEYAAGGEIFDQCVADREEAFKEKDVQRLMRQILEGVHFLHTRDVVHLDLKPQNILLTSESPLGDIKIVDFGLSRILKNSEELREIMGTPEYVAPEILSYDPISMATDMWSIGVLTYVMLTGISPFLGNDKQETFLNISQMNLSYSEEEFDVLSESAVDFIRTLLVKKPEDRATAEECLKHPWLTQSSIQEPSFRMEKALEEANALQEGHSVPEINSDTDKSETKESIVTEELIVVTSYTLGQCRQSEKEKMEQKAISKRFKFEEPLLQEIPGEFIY

[3] = biological target: Casein kinase I isoform delta (Homo sapiens, UniProt P48730)

CCOc1cc2ncc(C#N)c(Nc3ccc(F)c(Cl)c3)c2cc1NC(=O)/C=C/CN(C)C [PELITINIB]
pKd [1]: 5.34 | pKd [2]: 6.70

NC(=O)c1ccc(-c2nc(-c3ccc4c(c3)OCO4)c(-c3ccccn3)[nH]2)cc1 [SB-431542]
pKd [3]: 6.77

pKd: −log10 of the molar value.
